Where “and” joins values, the source holds several entries; their conditions need not be identical. Identical values can stand only once.
What follows are compounds tested against Mu-type opioid receptor (Homo sapiens, UniProt P35372) (assay: Binding Assay: Binding assay of certain compounds of this invention to the opioid receptor was determine using radioligand binding assay (screening and dose-displacement).).

By UniProt entry, the sequences of proteins in these tests, tags left out.
UniProt P35372, whole entry: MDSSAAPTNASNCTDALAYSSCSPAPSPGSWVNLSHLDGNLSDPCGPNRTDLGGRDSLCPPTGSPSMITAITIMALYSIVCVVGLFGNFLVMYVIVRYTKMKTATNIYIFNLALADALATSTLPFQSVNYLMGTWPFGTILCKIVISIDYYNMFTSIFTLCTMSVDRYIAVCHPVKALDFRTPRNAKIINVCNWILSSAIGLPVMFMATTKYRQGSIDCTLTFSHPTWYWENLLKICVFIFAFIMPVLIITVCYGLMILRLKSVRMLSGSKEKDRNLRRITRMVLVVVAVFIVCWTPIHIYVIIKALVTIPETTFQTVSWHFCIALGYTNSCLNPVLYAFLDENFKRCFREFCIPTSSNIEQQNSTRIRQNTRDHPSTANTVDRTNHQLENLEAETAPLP

Which Ki does the source give for COc1ccc2c3c1O[C@H]1[C@@]4(OC)CC[C@@]5(C[C@@H]4COCc4cccc(C)c4)[C@@H](C2)N(CC2CC2)CC[C@]315 here?
The Ki was 1.2 nM and 0.15 nM.

Which Ki does the source give for COc1ccc2c3c1O[C@H]1[C@@]4(OC)CC[C@@]5(C[C@@H]4COC/C=C/c4ccccc4)[C@@H](C2)N(CC2CC2)CC[C@]315 here?
Its Ki is 0.53 nM and 4.35 nM.

With COc1ccc2c3c1O[C@H]1[C@@]4(OC)CC[C@@]5(C[C@@H]4COCc4ccc(C(C)(C)C)cc4)[C@@H](C2)N(CC2CC2)CC[C@]315 as the compound, how does the Ki read?
Its Ki is 7.99 nM and 3.58 nM.

For COc1ccc2c3c1O[C@H]1[C@@]4(OC)CC[C@@]5(C[C@@H]4COCc4ccc6ccccc6c4)[C@@H](C2)N(CC2CC2)CC[C@]315, which Ki is on record?
The Ki was 0.74 nM and 1.87 nM.
